# Experimental data from ChEMBL document CHEMBL1125842, “Synthesis and anticonvulsant activity of 2-iminohydantoins” (J Med Chem, 1991).
# Tests used:
# [1] = Protective index was determined as ratio of TD50 to ED50(scMET method); assay type: functional
# [2] = Protective index was determined as ratio of TD50 to ED50(MES method); assay type: functional
smiles,measurement,setting,value
CCC1(c2ccccc2)NC(=O)N(C)C1=O (configuration not stated) [MEPHENYTOIN],PI,[1],5
same,PI,[2],2.5
